Values of other authors as cited in article PMC12198292, “Advancing in vitro assessment of iodide uptake inhibition: integrating a novel biotransformation pretreatment step” (Archives of Toxicology, 2025).

Set-up: method as in PubChem https://pubchem.ncbi.nlm.nih.gov/
Conditions: ref PubChem https://pubchem.ncbi.nlm.nih.gov/; cited from earlier work

## NC(=O)N1c2ccccc2C=Cc2ccccc21 [CBZ, Carbamazepine, reference compound]
  log Kow: 2.45
